The list shows a part of the results, in another mix than the full data. The source made the active and inactive calls. No rule for the calls is given here.

In the experiment the target is Eukaryotic translation initiation factor 4H (Homo sapiens) (UniProt Q15056). Briefly: eIF4H binding inhibition – biochemical, uHTS, fluorescence polarization, translation initiation inhibitor project, primary screen (AID 2012). To be noted: eIF4H fluorescence polarization binding assay; at 35 µM; stronger effect = higher value. (In general: Fluorescence polarisation rises when a labelled molecule tumbles more slowly, as on binding a larger partner.)
Take `COc1ccccc1OP(C)(=O)Nc1ccccc1` (stereo not drawn): the inhibition is inactive: 2.3%.

In the case of `O=P(Nc1ccccn1)(c1cccc2ccccc12)c1cccc2ccccc12`, the inhibition is inactive: -3.3%.

With `Cc1cc(SC(NC=O)C(Cl)(Cl)Cl)ncn1` (stereo not drawn), the inhibition is inactive: 3.9%.

Turning to `Cc1cc(SC(NC(=O)c2ccccc2)C(Cl)(Cl)Cl)nc(C(C)C)n1` (stereo not drawn), the inhibition is inactive: -3.8%.

Consider `CCCCOc1ccc(C(=O)NCC2(N3CCCCC3)CCCCC2)cc1OC`, for which the inhibition is inactive: -9.1%.

As to `COc1ccccc1OP(C)(=O)Nc1c(C)cccc1C` (stereo not drawn), the inhibition was inactive: -10%.

For `CN1CCCCC1COC(=O)C1(O)c2ccccc2CCc2ccccc21` (stereo not drawn), the inhibition was inactive: 5.8%.

With `O=P1(Nc2ncccn2)COc2ccccc2OC1`, the inhibition was inactive: 4.2%.

Regarding `Cc1ccc(OCC(=O)OC2CN3CCC2CC3)cc1` (stereo not drawn), the inhibition is inactive: -6.3%.

Regarding `O=[As](O)(c1cccs1)c1cccs1`, the inhibition is inactive: -3.4%.

Take `O=P1(Nc2ccc(Br)cn2)COc2ccccc2OC1`: the inhibition was inactive: -7.7%.

Consider `CCCOc1ccc(NP(C)(=O)Oc2ccc(Cl)cc2)cc1` (stereo not drawn), for which the inhibition is inactive: 3.6%.

In the case of `Nc1cccc([As](=O)(O)c2ccccc2)c1`, the inhibition was inactive: 3.4%.

Consider `CP(=O)(Nc1ccc(SC(F)(F)F)cc1)Oc1ccccc1` (stereo not drawn), for which the inhibition is inactive: -13.1%.

On to `COc1cc(C2NCCC3(OCCO3)C2(C)C)cc(OC)c1OC.O=[N+]([O-])c1cc([N+](=O)[O-])c(O)c([N+](=O)[O-])c1` (stereo not drawn), for which the inhibition was inactive: -7.5%.

`CC1CCC(C(C)C)C(OP(=O)(Nc2ccccn2)c2ccccc2)C1` (stereo not drawn): the inhibition was inactive: -5.9%.

On to `Cc1ccc(C(=O)OC2CN3CCC2CC3)cc1` (stereo not drawn), for which the inhibition was inactive: -2.3%.

On to `Cc1nn(-c2ccccc2)c2c1P(=O)(N1CCOCC1)N(C)C(c1ccccc1)=N2` (stereo not drawn), for which the inhibition was inactive: 5.7%.

In the case of `O=C(/C=C/c1ccccc1)OC1CN2CCC1CC2` (stereo not drawn), the inhibition is inactive: -1.7%.

Consider `CCOC(=O)C(CC)C1=NC(C)(C)Cc2ccccc21.O=[N+]([O-])c1cc([N+](=O)[O-])c(O)c([N+](=O)[O-])c1` (stereo not drawn), for which the inhibition was inactive: 3.9%.

Regarding `CN(C)C1(CNC(=O)c2ccc(S(C)(=O)=O)cc2)CCCCC1`, the inhibition is inactive: 4.7%.

For the compound `O=[N+]([O-])c1cc([N+](=O)[O-])c(Nc2nnnn2CCO)c([N+](=O)[O-])c1`, the inhibition is inactive: 9.4%.

Consider `Cc1nc2ccc3ccccc3c2s1.O=[N+]([O-])c1cc([N+](=O)[O-])c(O)c([N+](=O)[O-])c1`, for which the inhibition is inactive: -6.2%.

As to `O=[As](O)(c1ccccc1Br)c1ccccc1Br`, the inhibition was inactive: 0.8%.

With `CC(C)/C=N\N=C(\N)N[N+](=O)[O-]`, the inhibition is inactive: 6.1%.

Turning to `CN(C(=O)Cc1ccc(Cl)c(Cl)c1)[C@@H]1CCCC[C@H]1N1CCCC1`, the inhibition was inactive: 1.6%.

As for `CCOP(=O)(Nc1ccc(C)cn1)OCC`, the inhibition is inactive: 4.7%.

On to `O=[N+]([O-])c1cc([N+](=O)[O-])c(-n2nnc3ccccc32)c([N+](=O)[O-])c1`, for which the inhibition is inactive: 6.8%.

Take `CCOP(=O)(NC(=NC(C)c1ccccc1)NC(C)c1ccccc1)OCC` (stereo not drawn): the inhibition was inactive: -1.8%.

As for `CCC1=CC2Cc3nc4ccc(Cl)cc4c(N)c3C(C1)C2` (stereo not drawn), the inhibition was inactive: -8.9%.

For `CC(C)(C)C(=O)NC(Sc1ncccn1)C(Cl)(Cl)Cl` (stereo not drawn), the inhibition is inactive: -7.3%.

On to `Clc1n[nH]nc1-c1nn[nH][15n]1`, for which the inhibition is inactive: 5.5%.

In the case of `Cc1ccc(C)c(NP(C)(=O)Oc2ccccc2)c1` (stereo not drawn), the inhibition was inactive: 6.8%.

Consider `CCCOP(=S)(Nc1nc(N)cc(=O)[nH]1)OCCC`, for which the inhibition was inactive: 7.6%.

For `Cc1ccc(NCCc2c([N+](=O)[O-])cc([N+](=O)[O-])cc2[N+](=O)[O-])cc1`, the inhibition was inactive: 43.1%.

`Cc1cc(C)cc(OP(C)(=O)Nc2ccccn2)c1` (stereo not drawn): the inhibition was inactive: -3.1%.

In the case of `CP(=O)(Nc1cccc(Br)c1)Oc1ccccc1` (stereo not drawn), the inhibition was inactive: -1.5%.

As to `CCOP(=O)(Nc1cccc2ccccc12)OCC`, the inhibition is inactive: 0.6%.

For `COc1ccccc1OP(C)(=O)Nc1cccc(Br)c1` (stereo not drawn), the inhibition is inactive: -3.6%.

As to `CS(=O)(=O)c1ccc(Cl)c(NC(=O)COC(=O)C(O)(c2ccccc2)c2ccccc2)c1`, the inhibition was inactive: 3.8%.

For `O=[As](O)(O)c1cccnc1`, the inhibition is inactive: -6%.

Consider `COc1cc(C(=O)NCC2(N3CCOCC3)CCCCC2)cc(Cl)c1OC(C)C`, for which the inhibition is inactive: -8.1%.

Take `O=C(OC1CN2CCC1CC2)c1ccc(Cl)cc1` (stereo not drawn): the inhibition was inactive: -4.1%.

Turning to `CCOC(=O)c1ccc(NP(C)(=O)Oc2cc(C)cc(C)c2)cc1` (stereo not drawn), the inhibition was inactive: 4%.

As to `Cc1cc(C)cc(OP(C)(=O)Nc2ccc(C)cc2C)c1` (stereo not drawn), the inhibition is inactive: -2.5%.

Consider `Cc1cccc(OCC(=O)OC2CN3CCC2CC3)c1` (stereo not drawn), for which the inhibition is inactive: -7.6%.

As to `O=[As](O)(c1cccc(O)c1)c1cccc(O)c1`, the inhibition is inactive: 1.2%.

Take `NC(=O)Nc1ccc([As](=O)(O)O)cc1`: the inhibition was inactive: -13.2%.

Turning to `CC1=NCCc2c1[nH]c1ccccc21.O=[N+]([O-])c1cc([N+](=O)[O-])c(O)c([N+](=O)[O-])c1`, the inhibition was inactive: -2.2%.

Take `O=[N+]([O-])c1ccc2c(c1)nnn2O`: the inhibition is inactive: 10.2%.

As for `CCOP1(=S)c2c(C)nn(CCC#N)c2N=C(c2ccc(F)cc2)N1C` (stereo not drawn), the inhibition is inactive: -2.6%.

On to `CN(C(=O)Cc1ccccc1)[C@@H]1CC[C@]2(CCCO2)C[C@H]1N1CCCC1`, for which the inhibition was inactive: -2.9%.

For `O=P(Nc1nccs1)(Oc1ccccc1)Oc1ccccc1`, the inhibition is inactive: -0.7%.

As to `O=P(Nc1nccs1)(c1ccccc1)c1nc2ccccc2s1` (stereo not drawn), the inhibition was inactive: 1.7%.

Regarding `CCOP1(=S)c2c(C)nn(CCC#N)c2N=C(c2ccccc2F)N1C` (stereo not drawn), the inhibition was inactive: -5.8%.

For the compound `O=C(O)c1cccc(Nc2c([N+](=O)[O-])cc([N+](=O)[O-])cc2[N+](=O)[O-])c1`, the inhibition was inactive: 11.7%.

As for `Nc1ccccc1[As](=O)(O)c1ccccc1`, the inhibition is inactive: -3.1%.

On to `O=C(O)COc1ccc([As](=O)(O)O)cc1[N+](=O)[O-]`, for which the inhibition is inactive: -5%.

By inhibition is commonly meant the change of the read-out against control, counted positive when it falls.

The record behind these values is PubChem BioAssay AID2012 (Sanford-Burnham Center for Chemical Genomics, 2009).
